According to patent US12139488B2, “Pyrido[3,2-d]pyrimidine compounds uses thereof for treating a proliferative disease” (Universite de Montreal, priority 2021, dated 2024):

Tests used:
Calu-6 cells (KRAS Q61K) = assay: Proliferation inhibition (CellTiter-Glo), Calu-6; conditions: read-out: Calu6 Prolif. EC50; Calu6, 3 days
Experimental: (§1) All cancer cell lines (A375, A101D, A2058, RKO, HT29 SK-MEL 30, IPC298, HepG2, HCT-116, Lovo, SWV620, SW480, NCI-H358, NCI-H2122, Calu-6, NCIH2087, NCIH1755, NCIH1666 and Mewo) were obtained from ATCC and cultured in RPMI-1640 medium (Gibco) supplemented with 5% heat inactivated fetal bovine serum (FBS, Wisent) at 37° C. under 5% CO2. Cells were maintained in T175 flasks (Greiner). They were passaged by removing the culture medium, washing once in 10 mL of room temperature Phosphate Buffered Saline (PBS; Wisent) and incubating at 37° C. with 2 mL of 0.05% Trypsin (Thermo-Fisher). Trypsin was then inactivated by adding complete growth medium and the cells were then replated in a T175 culture dish at the appropriate dilution. All cell lines were routinely tested for mycoplasma contamination. Tissue type and mutational status of each cell line can be found in Table B.
(§2) CellTiter-Glo® viability analysis was conducted on cells plated in 100 μL of complete RPMI-1640 growth medium in 96-well flat-bottomed white opaque plates (Greiner or Croning) at a density indicated in Table E (for each CCL, number of cells plated per well of a 96-well plate to perform the CellTiter-Glo® cell viability assay). The cell density in cells/cm^2 would correspond to cell number divided by the area of one well of a 96-well plate (0.32 cm^2). Cells were maintained overnight at 37° C. under 5% CO2 before treatment with compounds' dilution series for 3 days.
(§3) In a dilution series 100 μL/well of test substance dilution prepared in complete RPMI-1640 growth media was added to the cells plated initially in 100 μL of growth media. The dilution series is selected so that ten concentrations cover a range from 10 μM to 0.33 nM. If necessary (as in the case of A375 cells, which were more sensitive to the compounds) the initial concentration of 10 μM is lowered to 1 μM and further dilution is carried out accordingly. The final concentration of DMSO in the assay is set at is 0.5%.
(§4) After 3 days of incubation, the growth media were removed by aspiration and 60 μL of diluted CellTiter-Glo® reagent (10 μL CellTiter-Glo® reagent+50 μL of PBS) was added to each well. Cells were allowed to lyse and to equilibrate in CellTiter-Glo® reagent by 5 min incubation on a plate shaker followed by 10 min incubation at room temperature. Luminescence signals were then acquired on a Synergy Neo2 plate reader (Biotek).
(§5) The effect of each compound dilution on the proliferation of cancer cell lines was expressed in % inhibition and calculated as follows. An internal 100% inhibition control (1 μM of trametinib; cat #HY-10999; MedChem Express; CAS #871700-17-3) was included in each plate and used as a measure of CellTiter-Glo® signal background. The value obtained for trametinib was subtracted from each data point. The average of DMSO (vehicle) controls (set as 0% inhibition) was established and used to calculate % inhibition: % inhibition=100*(1−((CellTiter-Glo® signalcompound)/(CellTiter-Glo® signalDMSO)))
(§6) The ability of each compound to inhibit proliferation was expressed as a EC50 value obtained by plotting the effect values for each data point of a dilution series and fitting the obtained curves using a log(agonist) versus response-variable slope (four parameters) function using GraphPadPrism (V7.0) or Dotmatics Screening Ultra platform.

IPC298 cells (NRAS-Q61L) = assay: Proliferation inhibition (CellTiter-Glo), IPC298; conditions: read-out: IPC298 Prolif. EC50; IPC298, 3 days
Experimental: as §1, §2, §3, §4, §5, §6

[1] = test system: pERK in SK-MEL30 cells (NRAS-Q61K); assay: Phospho-ERK inhibition (AlphaLISA), SK-MEL30; conditions: for SK-MEL30 pERK % Ymin: SK-MEL30, value in parentheses; for IC50: read-out: SK-MEL30 pERK IC50, SK-MEL30
Experimental: as §1
(§7) AlphaLISA® SureFire® Ultra™ p-ERK 1/2 (Thr202/Tyr204) analysis was conducted on cells plated in 100 μL of complete RPMI-1640 growth medium in 96-well flat-bottomed transparent dishes (Costar) at a density indicated in Table C. Cells were maintained overnight at 37° C. under 5% CO2 before treatment with compounds' dilution series for one hour. The cell density in cells/cm^2 corresponds to cell number divided by the area of one well of a 96-well plate ([…]).
(§8) In a dilution series 100 μL/well of test substance dilution prepared in complete RPMI-1640 growth media was added to the cells. The dilution series is selected so that ten concentrations cover a range from 10 μM to 0.33 nM. If necessary the initial concentration of 10 μM is increased to 100 μM or lowered to 1 μM (as in the case of A375 and H1666 cells, which are generally more sensitive to the compounds) and further dilution is carried out accordingly. The final concentration of DMSO in the assay is set at 0.5%.
(§9) After treatment, media was removed and cells were lysed in 50 μL of 1× AlphaScreen Ultra Lysis Buffer (Perkin Elmer). The AlphaLISA® SureFire® Ultra™ p-ERK 1/2 (Thr202/Tyr2O4) (PerkinElmer) reactions were performed with 5 μL of cell lysate according to the manufacturer's specifications in 384-well proxyplates (Perkin Elmer) followed by overnight incubation of the reactions at room temperature in a humidified chamber. After completion of the reactions, the signals were recorded on an EnVision plate reader (Perkin Elmer) using built in AlphaLISA® settings.
(§10) The effect of each compound dilution on the pERK signal was expressed in % inhibition and calculated as follows. An internal 100% inhibition control ([…] trametinib, cat #HY-10999; MedChem Express; CAS #871700-17-3) was included in each plate and used as a measure of pERK background. First, the value obtained for trametinib was subtracted from each data point. The average of DMSO (vehicle) controls (set as 0% inhibition) was established and used to calculate % inhibition: % inhibition=100*(1-((pERK signalcompound)/(pERK signalDMSO)))
as §6, with “pERK signal” for “proliferation”, “an IC50” for “a EC50”, “inhibition” for “effect”
(§11) When present, paradoxical pERK induction is inferred from the negative % inhibition values observed in the pERK IC50 curves of a compound.

[2] = test system: pERK in Calu-6 cells (KRAS Q61K); assay: Phospho-ERK inhibition (AlphaLISA), Calu-6; conditions: for Calu6 pERK % Ymin: Calu6, value in parentheses; for IC50: read-out: Calu6 pERK IC50, Calu6
Experimental: as §1, §7, §8, §9, §10
as §6, with “pERK signal” for “proliferation”, “an IC50” for “a EC50”, “inhibition” for “effect”
as §11

SW620 cells (KRAS-G12V) = assay: Proliferation inhibition (CellTiter-Glo), SW620; conditions: read-out: SW620 Prolif. EC50; SW620, 3 days
Experimental: as §1, §2, §3, §4, §5, §6

A101D cells (BRAF V600E) = assay: Proliferation inhibition (CellTiter-Glo), A101D; conditions: read-out: A101D Prolif. EC50, 3 days
Experimental: as §1, §2, §3, §4, §5, §6

O=S(=O)(CCCN1CCOCC1)c1cn(-c2ccc3ncnc(Nc4c(F)ccc(NS(=O)(=O)c5cccc(Cl)c5Cl)c4F)c3n2)c2ccccc12
EC50 (Calu-6 cells (KRAS Q61K)): 300 to 3000 nM | EC50 (IPC298 cells (NRAS-Q61L)): < 30 nM | SK-MEL30 pERK % Ymin [1]: −9% | IC50 [1]: < 30 nM | Calu6 pERK % Ymin [2]: 4% | IC50 [2]: 30 to 300 nM | EC50 (SW620 cells (KRAS-G12V)): 300 to 3000 nM | EC50 (A101D cells (BRAF V600E)): < 30 nM

Cc1c(Cl)cccc1S(=O)(=O)Nc1ccc(F)c(Nc2ncnc3ccc(-n4cc(C(=O)N5CCN(C)CC5)c5ccccc54)nc23)c1F
EC50 (Calu-6 cells (KRAS Q61K)): 300 to 3000 nM | EC50 (IPC298 cells (NRAS-Q61L)): < 30 nM | SK-MEL30 pERK % Ymin [1]: 8% | IC50 [1]: < 30 nM | Calu6 pERK % Ymin [2]: 6% | IC50 [2]: 30 to 300 nM | EC50 (SW620 cells (KRAS-G12V)): < 30 nM | EC50 (A101D cells (BRAF V600E)): < 30 nM

CS(=O)(=O)C1CCN(c2cccc3c2nnn3-c2ccc3ncnc(Nc4c(F)ccc(NS(=O)(=O)c5cccc(Cl)c5Cl)c4F)c3n2)CC1
EC50 (Calu-6 cells (KRAS Q61K)): 300 to 3000 nM | EC50 (IPC298 cells (NRAS-Q61L)): < 30 nM | SK-MEL30 pERK % Ymin [1]: 5% | IC50 [1]: < 30 nM | Calu6 pERK % Ymin [2]: −7% | IC50 [2]: < 30 nM | EC50 (SW620 cells (KRAS-G12V)): < 30 nM | EC50 (A101D cells (BRAF V600E)): < 30 nM

Cc1c(F)cccc1S(=O)(=O)Nc1ccc(F)c(Nc2ncnc3ccc(-n4cnc5c(-c6cccnc6)cccc54)nc23)c1F
EC50 (Calu-6 cells (KRAS Q61K)): 300 to 3000 nM | EC50 (IPC298 cells (NRAS-Q61L)): < 30 nM | SK-MEL30 pERK % Ymin [1]: 9% | IC50 [1]: 30 to 300 nM | Calu6 pERK % Ymin [2]: 3% | IC50 [2]: 30 to 300 nM | EC50 (SW620 cells (KRAS-G12V)): 300 to 3000 nM | EC50 (A101D cells (BRAF V600E)): < 30 nM

Cc1c(Cl)csc1S(=O)(=O)Nc1ccc(F)c(Nc2ncnc3ccc(-n4cc(S(=O)(=O)N(C)CCN(C)C)c5ccccc54)nc23)c1F
EC50 (Calu-6 cells (KRAS Q61K)): < 30 nM | EC50 (IPC298 cells (NRAS-Q61L)): < 30 nM | SK-MEL30 pERK % Ymin [1]: −8% | IC50 [1]: < 30 nM | Calu6 pERK % Ymin [2]: 6% | IC50 [2]: 30 to 300 nM | EC50 (SW620 cells (KRAS-G12V)): 300 to 3000 nM | EC50 (A101D cells (BRAF V600E)): < 30 nM

O=S(=O)(Nc1ccc(F)c(Nc2ncnc3ccc(-n4cnc5c(N6CCC7(CCCC7)CC6)cccc54)nc23)c1F)c1cccc(Cl)c1Cl
EC50 (Calu-6 cells (KRAS Q61K)): 300 to 3000 nM | EC50 (IPC298 cells (NRAS-Q61L)): < 30 nM | SK-MEL30 pERK % Ymin [1]: 2% | IC50 [1]: < 30 nM | Calu6 pERK % Ymin [2]: −18% | IC50 [2]: 30 to 300 nM | EC50 (SW620 cells (KRAS-G12V)): 300 to 3000 nM | EC50 (A101D cells (BRAF V600E)): < 30 nM

COCCOc1cccc2c1nnn2-c1ccc2ncnc(Nc3c(F)ccc(NS(=O)(=O)c4cccc(Cl)c4Cl)c3F)c2n1
EC50 (Calu-6 cells (KRAS Q61K)): 300 to 3000 nM | EC50 (IPC298 cells (NRAS-Q61L)): < 30 nM | SK-MEL30 pERK % Ymin [1]: 1% | IC50 [1]: < 30 nM | Calu6 pERK % Ymin [2]: −11% | IC50 [2]: 30 to 300 nM | EC50 (SW620 cells (KRAS-G12V)): > 3000 nM | EC50 (A101D cells (BRAF V600E)): < 30 nM
